Amino acid sequences for entries named in this document (tags omitted). A change or cut given only in a name is not applied to a line headed by its entry.
UniProt P51254: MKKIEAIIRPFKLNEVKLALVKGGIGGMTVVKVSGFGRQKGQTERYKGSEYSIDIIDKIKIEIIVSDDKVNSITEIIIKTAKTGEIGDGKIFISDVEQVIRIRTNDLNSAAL

In paper PMC5768801, “The PII signaling protein from red algae represents an evolutionary link between cyanobacterial and Chloroplastida PII proteins” (Scientific Reports, 2018):

Assays:
PpPII = PpPII (Porphyra purpurea, UniProt P51254); assay: ITC binding of small effector molecules to red algal PpPII
Method: To gain additional insights into the ligand binding properties of PpPII in comparison to cyanobacterial and chloroplastid PII proteins, isothermal titration calorimetry (ITC) experiments were performed using highly purified Strep-tagged or His-tagged recombinant PpPII, SyPII, CrPII, and PhyscoPII proteins (Supplementary Fig. S1) with different protein/ligand/ concentrations to determine the best fitting conditions of the binding model. The titration experiments were repeated with different protein preparations to confirm the reproducibility of the results. The raw isothermal data were fitted into one-binding site as well as three-sequential binding sites to define the best fitting model. Fitting using a one binding site model states an average Kd value for all available binding sites and the mean of the stoichiometry of bound ligands.
The ITC experiments were done using a VP-ITC microcalorimeter (MicroCal, LCC). All details for determination of binding constants for small effector molecules using ITC are fully described in the supplementary information. Heat isotherms of the dilution of the ligand in the cell buffer were collected in a blank run for each experiment in the absence of protein. The binding isotherms were calculated from received data and fitted to one-site and three-sequential binding sites models using the MicroCal ORIGIN software (Northampton) as described. All titrations were performed in duplicates with different purification batches of recombinant PII proteins. The association binding constant (Ka) was generated from the software by de-convolution and curve fitting. For calculation of dissociation constant (Kd), the Ka value was inversed.
Supplementary Information […]
Determination of Binding Constants for Small Effector Molecules using Isothermal […]
The binding of the small effector molecules to the recombinant PII proteins was tested using isothermal titration calarmity (ITC); VP-ITC microcalorimeter (MicroCal). All titrations were performed on 20°C using […] injection syringe with injection 6 µl or 10 µl of the tested ligands for 45 or 29 times, respectively into the cell (1.4 ml) with continuous stirring at 155 rpm. All tested ligands were high grade, prepared freshly in the same buffer of the protein and purchased from Sigma-Aldrich. Heat isotherms for the dilution of the ligand in the cell buffer were collected in a blank run in the absence of protein. The received calorimetric data were analyzed using MicroCal Origin software and fitted into one-site and three-sequential binding sites models, as indicated by the manufacture for calculation of binding isotherms9. For data reproducibility, the titrations were performed in duplicates with different purification batches of recombinant PII proteins. The association binding constant (Ka) was generated from the software by de-convolution and curve fitting. For calculation of dissociation constant (Kd), the Ka value was inversed.
For determination the binding isotherms of red algal PpPII protein, a buffer system composed of […]
used. For determination ATP and ADP binding isotherms upon the binding to PpPII protein, His- […]
against 2 mM ATP or 2 mM ADP. For determination of ATP and ADP binding isotherms in […]
concentration) was titrated against 0.5 mM of ATP or 1 mM ADP, respectively. However, for […]
of 1 mM of ATP or 1 mM ADP. […]

PpPII-ScNAGK complex = PpPII-ScNAGK complex (Porphyra purpurea, UniProt P51254); assay: Coupled NAGK activity assay, ScNAGK with PpPII; format: biochemical, Synechocystis sp. PCC 6803; Porphyra purpurea

Work on `O=C(O)CCC(=O)C(=O)O` [2-OG, 2-oxoglutarate] yielded a Kd (PpPII; Average Kd (one-site binding model), in presence ATP (1 mM)) of 4 ± 2.4 µM, a Kd (PpPII; Kd1 (three-sites binding model), in presence ATP (1 mM)) of 2.7 ± 1.4 µM and a Kd (PpPII; Kd3 (three-sites binding model), in presence ATP (1 mM)) of 80 ± 22 µM. The “Average Kd (one-site binding model)” value (PpPII; in presence ADP (1 mM)) was “No binding”, the “Kd1 (three-sites binding model)” value (PpPII; in presence ADP (1 mM)) was “No binding” and the “Kd2 (three-sites binding model)” value (PpPII; in presence ADP (1 mM)) was “No binding”. The “Kd3 (three-sites binding model)” value (PpPII; in presence ADP (1 mM)) was “No binding”, the Kd (PpPII; read-out: Kd2 (three-sites binding model), in presence ATP (1 mM)) was 50.7 ± 16.1 µM and the IC50 (PpPII-ScNAGK complex) was 220 ± 10 µM.

Like-named read-outs stand apart in the source and are kept apart here.
